Experimental data from PubChem BioAssay AID619 (University of Pittsburgh Molecular Library Screening Center, 2007).
This is a selection; strong and weak results do not stand in their true shares. Some tests of the compounds listed are not included; inactive here does not mean inactive elsewhere. Activity calls are given as the source filed them.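 How the source made its calls: active means inhibition of 50% or more in the single-concentration screen; inactive means inhibition below 50%.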

By UniProt entry, the sequences of proteins in these tests, tags left out.
UniProt P53350, whole entry: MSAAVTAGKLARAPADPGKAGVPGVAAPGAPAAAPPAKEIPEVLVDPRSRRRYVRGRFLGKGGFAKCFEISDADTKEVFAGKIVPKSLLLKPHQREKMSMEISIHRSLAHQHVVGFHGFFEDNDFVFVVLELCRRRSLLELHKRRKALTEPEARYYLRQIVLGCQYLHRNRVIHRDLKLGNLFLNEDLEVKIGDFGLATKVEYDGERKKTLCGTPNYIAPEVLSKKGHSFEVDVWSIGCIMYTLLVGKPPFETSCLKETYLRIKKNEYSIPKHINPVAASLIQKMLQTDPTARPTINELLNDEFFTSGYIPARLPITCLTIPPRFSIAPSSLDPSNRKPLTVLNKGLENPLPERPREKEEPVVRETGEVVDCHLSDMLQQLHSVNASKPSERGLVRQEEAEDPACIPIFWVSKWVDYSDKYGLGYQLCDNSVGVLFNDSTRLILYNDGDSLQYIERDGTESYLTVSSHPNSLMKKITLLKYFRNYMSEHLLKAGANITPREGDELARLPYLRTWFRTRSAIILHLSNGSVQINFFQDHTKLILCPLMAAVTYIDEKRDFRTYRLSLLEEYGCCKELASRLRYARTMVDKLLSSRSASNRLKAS

molecular target: Serine/threonine-protein kinase PLK1 (Homo sapiens) (UniProt P53350); assay: Plk1 peptide phosphorylation blockers – biochemical, TR-FRET, primary screen (AID 619); conditions: recombinant PLK1 kinase, at 10 µM, stronger effect = higher value;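 further: 0% = DMSO max control and 100% = H-89 dihydrochloride min control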

| Compound | inhibition |
| --- | --- |
| CN(C)c1cccc(C(=O)NCC2(N(C)C)CCCCC2)c1 | inactive: -17.2% |
| O=C(OC1CN2CCC1CC2)C(CO)(c1ccccc1)c1ccccc1 (stereo not drawn) | inactive: -6.58% |
| CC(C)N1C(=O)CC2(CCN(CCOC(=O)C(O)(c3ccccc3)c3ccccc3)CC2)C1=O | inactive: -10.2% |
